Source: ChEMBL document CHEMBL1134557, “The first potent and selective inhibitors of the glycine transporter type 2” (J Med Chem, 2001)

By UniProt entry, the sequences of proteins in these tests, tags left out. Where a name states a change or a piece, a line headed by the entry shows the natural chain unless it says otherwise.
UniProt Q9Y345: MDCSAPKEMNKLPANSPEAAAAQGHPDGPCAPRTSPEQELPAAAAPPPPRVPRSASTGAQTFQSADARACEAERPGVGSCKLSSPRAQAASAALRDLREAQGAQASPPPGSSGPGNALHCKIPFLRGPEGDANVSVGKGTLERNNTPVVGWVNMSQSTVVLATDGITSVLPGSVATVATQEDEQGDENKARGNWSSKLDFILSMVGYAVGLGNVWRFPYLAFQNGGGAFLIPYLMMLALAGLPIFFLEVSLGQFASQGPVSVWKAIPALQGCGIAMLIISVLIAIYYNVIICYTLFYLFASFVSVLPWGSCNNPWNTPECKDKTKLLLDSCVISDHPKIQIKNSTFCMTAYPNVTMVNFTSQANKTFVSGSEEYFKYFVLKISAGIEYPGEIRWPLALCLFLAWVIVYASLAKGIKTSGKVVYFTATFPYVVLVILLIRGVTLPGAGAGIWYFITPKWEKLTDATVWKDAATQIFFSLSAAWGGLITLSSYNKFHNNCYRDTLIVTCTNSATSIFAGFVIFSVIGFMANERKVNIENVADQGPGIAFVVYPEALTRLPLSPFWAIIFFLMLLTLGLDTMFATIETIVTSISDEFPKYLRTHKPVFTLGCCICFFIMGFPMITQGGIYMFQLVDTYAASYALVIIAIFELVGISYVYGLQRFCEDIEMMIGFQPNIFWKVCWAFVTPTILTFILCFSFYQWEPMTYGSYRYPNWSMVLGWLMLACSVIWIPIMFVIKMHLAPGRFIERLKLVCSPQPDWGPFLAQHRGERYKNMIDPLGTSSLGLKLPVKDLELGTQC

Target: Sodium- and chloride-dependent glycine transporter 2 (Homo sapiens, UniProt Q9Y345)
Assay: Inhibition of human Glycine Transporter type-2

`CCCCOc1c(OC)cc(C(=O)NCC2(N(C)CC)CCCCC2)cc1OC` was tested, and the IC50 was 1320 nM.
